In BindingDB's records for doi:10.1021/jm9811256 (Academy of Sciences of The Czech Republic, 1999):

Assays:
[1] = Inhibitory activity against varicella zoster virus thymidine kinase (VZV TK+) OKA strain
[2] = Inhibitory activity against varicella zoster virus thymidine kinase (VZV TK+) YS strain

Nc1ncnc2c1ncn2CCOCP(=O)(O)O [9-[2-phosphonomethoxyethyl]adenine]
EC50 [1]: 31.1 µM
EC50 [2]: 19.7 µM
